ChEMBL document CHEMBL4422615, “Novel non-xanthine antagonist of the A2B adenosine receptor: From HTS hit to lead structure” (Eur J Med Chem, 2019)

Legend:
Assay type in all cases: cell-based
Homo sapiens [1] = species on record: Homo sapiens; experiment: Selectivity index, ratio of Ki for human A1 adenosine receptor expressed in CHO cell membranes to Ki for human A2B adenosine receptor expressed in HEK293 cell membranes
Rattus norvegicus = species on record: Rattus norvegicus; experiment: Selectivity index, ratio of IC50 for recombinant rat A2A adenosine receptor expressed in CHO cells to IC50 for rat A2B adenosine receptor expressed in CHO cells
[2] = biological target: T1, Adenosine receptor A2b (Homo sapiens) (UniProt P29275); experiment: Displacement of [3H]DPCPX from human A2B adenosine receptor expressed in HEK293 cell membranes assessed as specific binding level at 1 x 10^-8 M after 60 mins by radioligand displacement assay relative to control
T1 sequence (whole entry): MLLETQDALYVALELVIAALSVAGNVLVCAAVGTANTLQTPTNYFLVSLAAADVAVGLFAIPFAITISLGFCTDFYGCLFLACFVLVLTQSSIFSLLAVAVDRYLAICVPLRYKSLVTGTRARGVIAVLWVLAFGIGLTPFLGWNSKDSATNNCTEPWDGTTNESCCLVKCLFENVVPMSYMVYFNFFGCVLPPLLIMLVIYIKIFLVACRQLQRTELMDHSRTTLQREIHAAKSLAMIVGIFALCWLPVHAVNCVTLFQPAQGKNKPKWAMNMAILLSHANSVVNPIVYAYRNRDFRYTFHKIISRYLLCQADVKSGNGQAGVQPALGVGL

[3] = biological target: T1, Adenosine receptor A2b (Homo sapiens); experiment: Displacement of [3H]DPCPX from human A2B adenosine receptor expressed in HEK293 cell membranes assessed as specific binding level at 3 x 10^-10 M after 60 mins by radioligand displacement assay relative to control
[4] = biological target: T1, Adenosine receptor A2b (Homo sapiens); experiment: Displacement of [3H]DPCPX from human A2B adenosine receptor expressed in HEK293 cell membranes assessed as specific binding level at 1 x 10^-7 M after 60 mins by radioligand displacement assay relative to control
[5] = biological target: T1, Adenosine receptor A2b (Homo sapiens); experiment: Displacement of [3H]DPCPX from human A2B adenosine receptor expressed in HEK293 cell membranes assessed as specific binding level at 3 x 10^-9 M after 60 mins by radioligand displacement assay relative to control
Homo sapiens [6] = species on record: Homo sapiens; experiment: Selectivity index, ratio of Ki for human A3 adenosine receptor expressed in HEK293 cell membranes to Ki for human A2B adenosine receptor expressed in HEK293 cell membranes
Mus musculus [7] = species on record: Mus musculus; experiment: Selectivity index, ratio of IC50 for recombinant mouse A1 adenosine receptor expressed in CHO cells to IC50 for mouse A2B adenosine receptor expressed in CHO cells
[8] = biological target: T1, Adenosine receptor A2b (Homo sapiens); experiment: Displacement of [3H]DPCPX from human A2B adenosine receptor expressed in HEK293 cell membranes assessed as specific binding level at 3 x 10^-7 M after 60 mins by radioligand displacement assay relative to control
Mus musculus [9] = species on record: Mus musculus; experiment: Selectivity index, ratio of IC50 for recombinant mouse A3 adenosine receptor expressed in CHO cells to IC50 for mouse A2B adenosine receptor expressed in CHO cells
Homo sapiens [10] = species on record: Homo sapiens; experiment: Selectivity index, ratio of IC50 for recombinant human A3 adenosine receptor expressed in CHO cells to IC50 for human A2B adenosine receptor expressed in CHO cells
[11] = biological target: T1, Adenosine receptor A2b (Homo sapiens); experiment: Displacement of [3H]DPCPX from human A2B adenosine receptor expressed in HEK293 cell membranes assessed as specific binding level at 1 x 10^-6 M after 60 mins by radioligand displacement assay relative to control
Homo sapiens [12] = species on record: Homo sapiens; experiment: Selectivity index, ratio of IC50 for recombinant human A2A adenosine receptor expressed in CHO cells to IC50 for human A2B adenosine receptor expressed in CHO cells
[13] = biological target: T1, Adenosine receptor A2b (Homo sapiens); experiment: Displacement of [3H]DPCPX from human A2B adenosine receptor expressed in HEK293 cell membranes assessed as specific binding level at 1 x 10^-9 M after 60 mins by radioligand displacement assay relative to control
[14] = biological target: T1, Adenosine receptor A2b (Homo sapiens); experiment: Displacement of [3H]DPCPX from human A2B adenosine receptor expressed in HEK293 cell membranes assessed as specific binding level at 3 x 10^-8 M after 60 mins by radioligand displacement assay relative to control
Homo sapiens [15] = species on record: Homo sapiens; experiment: Selectivity index, ratio of Ki for human A2A adenosine receptor expressed in HEK293 cell membranes to Ki for human A2B adenosine receptor expressed in HEK293 cell membranes
Mus musculus [16] = species on record: Mus musculus; experiment: Selectivity index, ratio of IC50 for recombinant mouse A2A adenosine receptor expressed in CHO cells to IC50 for mouse A2B adenosine receptor expressed in CHO cells
Homo sapiens [17] = species on record: Homo sapiens; experiment: Selectivity index, ratio of IC50 for recombinant human A1 adenosine receptor expressed in CHO cells to IC50 for human A2B adenosine receptor expressed in CHO cells

In the case of `CCn1c(=O)c2c(C)c(C(=O)N3CCC(O)CC3)sc2n(CCC(F)(F)F)c1=O`, the Ratio Ki (Homo sapiens [1]) is reported as > 10, the Ratio IC50 (Rattus norvegicus) is reported as 2.7 and the Activity [2] is reported as 103%. It also gave an Activity [3] of 96.7%, an Activity [4] of 48.5% and an Activity [5] of 98.2%. For the same compound, the Ratio Ki (Homo sapiens [6]) was > 100, the Ratio IC50 (Mus musculus [7]) was > 17 and the Activity [8] was 24.4%. The Ratio IC50 (Mus musculus [9]) was > 17, the Ratio IC50 (Homo sapiens [10]) was > 100 and the Activity [11] was 12.7%. It also gave a Ratio IC50 (Homo sapiens [12]) of 13, an Activity [13] of 94.7% and an Activity [14] of 76.6%. For the same compound, the Ratio Ki (Homo sapiens [15]) was > 10, the Ratio IC50 (Mus musculus [16]) was 1.2 and the Ratio IC50 (Homo sapiens [17]) was 20.
